# Results reported in patent US20210405025A1, “IDENTIFYING COMPOUNDS FOR TREATING CANCER AND USE THEREOF” (THE UAB RESEARCH FOUNDATION, priority 2018, published 2021).
# Test system: relapsed AML cells
# Experiment: Drug sensitivity assay, 1,536-well, 3-day culture with individual approved drugs at 10 μM, viability by alamarBlue
row,SMILES,#Cases >70% cell death
1,C[C@@H](O)[C@H]1C(=O)N2C(C(=O)OCOC(=O)C(C)(C)C)=C(SC3CN(C4=NCCS4)C3)[C@H](C)[C@H]12 [TEBIPENEM PIVOXIL],1
2,C[C@@H]1C[C@H]2[C@@H]3C[C@H](F)C4=CC(=O)C=C[C@]4(C)[C@@]3(F)[C@@H](O)C[C@]2(C)[C@@]1(O)C(=O)CO [FLUMETHASONE],2
